Earlier results on one compound are cited in patent publication US20090148430A1, “HUMAN OBESITY SUSCEPTIBILTY GENE ENCODING POTASSIUM ION CHANNELS AND USES THEREOF” (priority 2004, published 2009).

The chains behind the UniProt entries cited, without tags or fusion partners.
UniProt P22460, whole entry: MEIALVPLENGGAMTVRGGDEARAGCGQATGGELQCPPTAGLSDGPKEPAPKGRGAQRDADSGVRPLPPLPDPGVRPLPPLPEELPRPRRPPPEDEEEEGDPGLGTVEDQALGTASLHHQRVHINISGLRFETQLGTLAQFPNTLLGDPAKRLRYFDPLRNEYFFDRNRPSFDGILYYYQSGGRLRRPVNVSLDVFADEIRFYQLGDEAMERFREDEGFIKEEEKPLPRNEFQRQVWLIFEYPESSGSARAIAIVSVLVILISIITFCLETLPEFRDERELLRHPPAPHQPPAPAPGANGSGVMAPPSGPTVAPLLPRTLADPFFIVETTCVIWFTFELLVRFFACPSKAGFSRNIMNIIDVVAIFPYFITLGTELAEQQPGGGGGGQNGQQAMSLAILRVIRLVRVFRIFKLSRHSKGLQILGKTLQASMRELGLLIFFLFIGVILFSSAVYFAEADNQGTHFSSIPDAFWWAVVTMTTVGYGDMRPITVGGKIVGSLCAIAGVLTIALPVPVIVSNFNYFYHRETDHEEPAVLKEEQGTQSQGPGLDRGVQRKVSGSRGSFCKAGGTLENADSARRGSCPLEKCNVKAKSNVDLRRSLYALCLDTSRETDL

The target in one data set is T1, hKv1.5 (Homo sapiens, UniProt P22460).
T1 construct: host or cells: Chinese hamster ovary (CHO) cells
To be noted: Chinese hamster ovary (CHO) cells; read-out: IC(50) decrease of steady-state hKv1.5 current.

The target in another data set is T2, human Kv1.5 (Homo sapiens, UniProt P22460).
T2 construct: host or cells: Xenopus oocytes
To be noted: expressed in Xenopus oocytes; read-out: IC(50) block of human Kv1.5.

In the case of `COc1ccc(CC(=O)NCc2ccccc2-c2ccccc2C(=O)NCCc2cccnc2)cc1` [AVE0118], the figures for the IC50 on hKv1.5 and at human Kv1.5 were 1.1 µM and 6.2 µM, respectively.
